# From PubChem BioAssay AID504332 (National Center for Advancing Translational Sciences (NCATS), 2011)
# By UniProt entry, the sequences of proteins in these tests, tags left out. Where a name states a change or a piece, a line headed by the entry shows the natural chain unless it says otherwise.
# UniProt Q96KQ7: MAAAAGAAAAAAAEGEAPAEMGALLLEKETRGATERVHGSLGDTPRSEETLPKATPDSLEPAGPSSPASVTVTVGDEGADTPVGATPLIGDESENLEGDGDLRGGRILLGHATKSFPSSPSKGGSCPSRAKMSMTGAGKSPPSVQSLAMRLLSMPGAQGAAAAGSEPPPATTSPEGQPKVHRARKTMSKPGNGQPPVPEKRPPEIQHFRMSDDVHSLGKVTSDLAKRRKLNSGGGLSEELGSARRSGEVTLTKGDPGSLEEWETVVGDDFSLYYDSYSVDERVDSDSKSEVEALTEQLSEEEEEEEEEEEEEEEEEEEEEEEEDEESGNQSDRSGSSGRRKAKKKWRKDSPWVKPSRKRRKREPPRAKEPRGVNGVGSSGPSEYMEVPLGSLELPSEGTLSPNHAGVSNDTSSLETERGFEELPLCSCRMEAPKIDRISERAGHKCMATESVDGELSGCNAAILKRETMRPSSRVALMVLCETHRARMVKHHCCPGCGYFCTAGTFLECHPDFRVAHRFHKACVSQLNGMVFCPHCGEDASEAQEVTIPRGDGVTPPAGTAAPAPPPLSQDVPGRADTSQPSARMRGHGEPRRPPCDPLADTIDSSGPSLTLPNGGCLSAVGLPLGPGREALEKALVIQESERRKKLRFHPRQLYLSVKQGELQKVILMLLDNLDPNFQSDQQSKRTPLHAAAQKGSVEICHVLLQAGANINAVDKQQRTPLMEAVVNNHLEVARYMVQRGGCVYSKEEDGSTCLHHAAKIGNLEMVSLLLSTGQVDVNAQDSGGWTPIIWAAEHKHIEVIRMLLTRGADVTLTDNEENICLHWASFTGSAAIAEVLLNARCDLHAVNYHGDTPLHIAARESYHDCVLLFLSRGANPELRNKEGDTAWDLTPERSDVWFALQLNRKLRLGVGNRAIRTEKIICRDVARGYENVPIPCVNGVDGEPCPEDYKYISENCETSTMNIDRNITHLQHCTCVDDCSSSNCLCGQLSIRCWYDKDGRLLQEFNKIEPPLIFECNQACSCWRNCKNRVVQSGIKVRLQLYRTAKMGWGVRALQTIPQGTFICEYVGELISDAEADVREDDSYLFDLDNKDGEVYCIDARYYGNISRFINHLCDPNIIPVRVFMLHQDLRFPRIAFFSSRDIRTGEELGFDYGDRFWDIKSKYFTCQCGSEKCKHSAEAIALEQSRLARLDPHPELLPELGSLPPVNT
# The entries are a selection whose mix differs from that of the whole data set. Results filed as inconclusive are left out. Entries that show only a call come without a potency. The source made the active and inactive calls. Calls follow the shape of the dose curve; as a rule, active = well fitted inhibition curve with a large enough effect; inconclusive = small, poorly fitted or top-dose-only effect; inactive = no such curve, though single readings can be large or run the other way.
# Molecular target: Histone-lysine N-methyltransferase EHMT2 (Homo sapiens) (UniProt Q96KQ7)
# Assay: qHTS Assay for Inhibitors of Histone Lysine Methyltransferase G9a; also: nearly all actives have a fitted effect of over 75% in size
# Conditions: G9a H3K9 monomethylation, AlphaScreen, 2 h; series mostly up to 102 µM
# Potency is read from the fitted curve at half-maximal effect.
SMILES,Potency,"activity, negative = inhibition"
CC1=NCCc2c1[nH]c1ccccc21,active: 44.7 µM,
Cc1ccc(OP(=O)(Nc2nccs2)Oc2ccc(C)cc2)cc1,inactive,
COc1ccccc1OP(=O)(Nc1ccc(C)cn1)Oc1ccccc1OC,inactive,
Clc1ccc(Cl)c(NC2=NCC(CBr)S2)c1 (stereo not drawn),active: 25.1 µM,
CC(C)CC(=O)NC(Sc1ccc(Cl)cc1)C(Cl)(Cl)Cl (stereo not drawn),inactive,
Nc1cc(N)c2nonc2c1[N+](=O)[O-],inactive,
O=C(NC(Sc1ccncn1)C(Cl)(Cl)Cl)c1ccccc1 (stereo not drawn),active: 2.24 µM,
Oc1ccccc1CNc1ccccn1,inactive,
COc1ccc(C2=NCC(CBr)S2)cc1 (stereo not drawn),active: 35.5 µM,
CC(=O)N1C2C3N(C(C)=O)C1C1N(C(C)=O)C(C(N1C(C)=O)N3C(C)=O)N2C(C)=O,inactive,
O=[N+]([O-])c1cccc2n[nH]nc12,inactive,
CCc1nc2c(n1)c1c(non1O)c1c2no[n+]1[O-],active: 56.2 µM,
Cc1ccc(NP(=O)(Oc2ccccc2)Oc2ccccc2)nc1,inactive,
CCN(/C(=N/P(=O)(N1CCOCC1)N1CCOCC1)N1CCOCC1)c1ccc(OC)cc1,inactive,
CN(C)C(=O)OCCc1n(C)cc[n+]1C,inactive,
CC1CCN(C(=O)Oc2c(Cl)cc(Cl)c3cccnc23)CC1,inactive,
CC(=O)C1=CCCC2CCC1N2 (stereo not drawn),inactive,
O=C(Nc1cc([As](=O)(O)O)ccc1O)c1ccccc1,,inactive: 43.2% [at 0.501 µM]
CC(C)(C)C(=O)NC(Sc1ccncn1)C(Cl)(Cl)Cl (stereo not drawn),active: 8.91 µM,
O=[N+]([O-])c1ncn(CCn2ncnc2[N+](=O)[O-])n1,inactive,
O=C(O)CNc1ccc([As](=O)(O)O)cc1,inactive,
O=P(Nc1ccccn1)(c1ccc(Br)cc1)c1ccc(Br)cc1,inactive,
O=P(Nc1nc2ccccc2s1)(c1ccccc1)c1ccccc1,inactive,
CN(C(=O)Cc1ccccc1)[C@H]1CC[C@@]2(CCCO2)C[C@@H]1N1CCCC1,inactive,

SMILES,Potency,"activity, negative = inhibition"
O=[N+]([O-])c1ncn(CCn2cnc([N+](=O)[O-])n2)n1,inactive,
CC(=O)NC(SC(=S)N(C)C)C(Cl)(Cl)Cl (stereo not drawn),active: 28.2 µM,
O=[As](O)(c1ccccc1)c1ccc(O)cc1,inactive,
O=P(Nc1nccs1)(c1ccccc1)c1ccccc1,,inactive: 0.637% [at 12.7 µM]
CC(C)C(=O)NC(Sc1ccccc1)C(Cl)(Cl)Cl (stereo not drawn),inactive,
c1nnnn1CCn1cnnn1,,inactive: 26.7% [at 2.33 µM]
CCOc1ccc(C2=NCC(CBr)S2)cc1 (stereo not drawn),active: 39.8 µM,
O=P1(Nc2nc3ccc(Cl)cc3s2)COc2ccccc2O1 (stereo not drawn),inactive,
CC(C)(C)C(=O)NC(Sc1ccccc1)C(Cl)(Cl)Cl (stereo not drawn),inactive,
CC(=O)c1ccc(N2CC2c2ccncc2)cc1 (stereo not drawn),inactive,
C[C@H]1OP(=O)(Oc2ccccc2)C[C@@H]2O[C@@H]21 (stereo partly drawn),,inactive: 29.7% [at 12.7 µM]
Cc1ccccc1CN(C)C(=O)COC(=O)C(O)(c1ccccc1)c1ccccc1,,inactive: 6.8% [at 2.33 µM]
CC(=O)Nc1ccc(Oc2c([N+](=O)[O-])cc([N+](=O)[O-])cc2[N+](=O)[O-])cc1,active: 44.7 µM,
O=C(NC1CCS(=O)(=O)C1)NP(=S)(Oc1ccccc1)Oc1ccccc1 (stereo not drawn),inactive,
CCNC(=S)/N=C(\N)N[N+](=O)[O-],inactive,
CCOC(=O)NC(Sc1ccccc1)C(Cl)(Cl)Cl (stereo not drawn),inactive,
Cc1ccc(NP(=O)(Oc2cccc(C)c2)Oc2cccc(C)c2)nc1,,inactive: 20.5% [at 12.7 µM]
Cc1ccc(OP(=O)(Nc2ccccn2)Oc2ccc(C)cc2)cc1,inactive,
COC(=O)c1cc2c(s1)N=C(c1ccccc1)N(C)P2(=O)N1CCOCC1 (stereo not drawn),inactive,
CCC(=O)N1C2C3N(C(=O)CC)C1C1N(C(=O)CC)C(C(N1C(=O)CC)N3C(=O)CC)N2C(=O)CC,inactive,
O=C(OC1CN2CCC1CC2)c1ccccc1 (stereo not drawn),inactive,
CN(C)C(=O)Oc1noc2ccccc12,inactive,
O=c1c2cc([N+](=O)[O-])ccc2[nH]c2c([N+](=O)[O-])cc([N+](=O)[O-])cc12,inactive,
Cc1ccccc1OP(=O)(Nc1ccccn1)Oc1ccccc1C,inactive,
